Measurements reported in PubChem BioAssay AID1552 (Sanford-Burnham Center for Chemical Genomics, 2009).
The source made the active and inactive calls. How the calls were made is not given here.

The chains behind the UniProt entries cited, without tags or fusion partners. Where a name states a change or a piece, a line headed by the entry shows the natural chain unless it says otherwise.
UniProt P61088: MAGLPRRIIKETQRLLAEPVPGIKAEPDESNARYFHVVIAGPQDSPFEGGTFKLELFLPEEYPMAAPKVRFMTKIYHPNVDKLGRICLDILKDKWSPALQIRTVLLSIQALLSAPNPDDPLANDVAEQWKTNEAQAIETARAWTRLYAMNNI

Target: Ubiquitin-conjugating enzyme E2 N (Homo sapiens) (UniProt P61088)
Assay: NMR detection of UBE2N ligand binding – biophysical, purified protein (AID 1552)
Settings: NMR binding to purified UBE2N

Cc1c2non([O-])c-2c(C)[n+](=O)[n+]1[O-]
Kd: inactive: > 4 mM
